Literature values in patent US20260234568A1, “TUMOR STORAGE AND CELL CULTURE COMPOSITIONS” (Iovance Biotherapeutics, Inc., priority 2021, published 2026).

Settings: rhIL-2 lot 10200121 (Cellgenix), 1 mg vial, per COA; cited from earlier work

rhIL-2: purified, lyophilized recombinant human interleukin-2; lot 10200121 (Cellgenix)
specific activity: 25×10^6 IU/mg
